{"sequences": {"note": "By UniProt entry, the sequences of proteins in these tests, tags left out.", "UniProt P25774, whole entry": "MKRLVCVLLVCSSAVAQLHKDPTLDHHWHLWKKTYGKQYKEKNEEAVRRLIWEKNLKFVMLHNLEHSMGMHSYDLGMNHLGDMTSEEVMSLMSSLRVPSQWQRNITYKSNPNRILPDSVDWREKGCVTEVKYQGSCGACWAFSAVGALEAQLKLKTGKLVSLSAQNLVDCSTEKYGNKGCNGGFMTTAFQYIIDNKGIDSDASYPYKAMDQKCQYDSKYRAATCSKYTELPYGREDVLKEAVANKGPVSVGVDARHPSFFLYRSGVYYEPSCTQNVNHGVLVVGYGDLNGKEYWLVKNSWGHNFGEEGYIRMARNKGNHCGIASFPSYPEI"}, "source": "ChEMBL document CHEMBL3886685", "about": "“Nitrogen-containing bicyclic aromatic heterocyclic compound” (2016)", "target": "Cathepsin S (Homo sapiens, UniProt P25774)", "assay": "Inhibition Assay: 5 μL of a human cathepsin S enzyme (R&D1183-CY-010) was added to a 96-well plate so as to be 20 ng/well. Next, 10-fold dilution of the test compound (a 10 mM DMSO solution) was serially performed with a buffer solution for assay (a solution of 50 mM sodium methoxide, 250 mM sodium chloride and 5 mM dithiothreitol (DTT), adjusted to pH=4.5 with 1 N hydrochloric acid) six times such that the final concentration becomes 0.1 nM to 10 μM then, 20 μL of each of the solutions was added to the wells (the final DMSO concentration was 0.1%), and 25 μL of synthetic substrate VVR-AMC (3211-V manufactured by PEPTIDE […], INC.) was added thereto such that the final concentration becomes 40 μM, thereby starting a enzyme reaction. A fluorescence intensity (an excitation wavelength: 380 nm and a fluorescent wavelength: 460 nm) was measured at 37° C. for 10 minutes immediately after the start of the reaction using a fluorescence spectrophotometer (SPECTRA MAX GEMINI, manu", "note": "pIC50: −log10 of the molar value.", "data": [{"smiles": "CCOc1ccc(-c2nc(C#N)nc3c2ncn3C)cc1C(F)(F)F", "values": [{"measurement": "pIC50", "result": 8.42}]}]}
